Patent publication EP4755402A1, “ANTIBODY-DRUG CONJUGATE HAVING HIGH DRUG LOAD AND USE THEREOF” (priority 2023, dated 2025)

Test system: SK-BR-3 cells
Test: In vitro killing activity (resazurin)
Format: cell-based
Settings: percentage of cytotoxicity relative to DP303c (from IC50); ADC conjugated with LND1002, 3 days at 37°C

DP14-ADC showed a killing of 211%.
In the case of DP21-ADC, the killing is reported as 154%.
For DP23-ADC, the killing was 265%.
For “AB5-ADC: DP001 (anti-HER2) with LC: Addition of GGLQSGA at the C-terminus, conjugated to LND1002 via mTGase”, the killing was 166%.
